Data on 71 compounds can be found in PubChem BioAssay AID1920062 (Sanford-Burnham Center for Chemical Genomics, 2024).

The chains behind the UniProt entries cited, without tags or fusion partners.
UniProt P20594, whole entry: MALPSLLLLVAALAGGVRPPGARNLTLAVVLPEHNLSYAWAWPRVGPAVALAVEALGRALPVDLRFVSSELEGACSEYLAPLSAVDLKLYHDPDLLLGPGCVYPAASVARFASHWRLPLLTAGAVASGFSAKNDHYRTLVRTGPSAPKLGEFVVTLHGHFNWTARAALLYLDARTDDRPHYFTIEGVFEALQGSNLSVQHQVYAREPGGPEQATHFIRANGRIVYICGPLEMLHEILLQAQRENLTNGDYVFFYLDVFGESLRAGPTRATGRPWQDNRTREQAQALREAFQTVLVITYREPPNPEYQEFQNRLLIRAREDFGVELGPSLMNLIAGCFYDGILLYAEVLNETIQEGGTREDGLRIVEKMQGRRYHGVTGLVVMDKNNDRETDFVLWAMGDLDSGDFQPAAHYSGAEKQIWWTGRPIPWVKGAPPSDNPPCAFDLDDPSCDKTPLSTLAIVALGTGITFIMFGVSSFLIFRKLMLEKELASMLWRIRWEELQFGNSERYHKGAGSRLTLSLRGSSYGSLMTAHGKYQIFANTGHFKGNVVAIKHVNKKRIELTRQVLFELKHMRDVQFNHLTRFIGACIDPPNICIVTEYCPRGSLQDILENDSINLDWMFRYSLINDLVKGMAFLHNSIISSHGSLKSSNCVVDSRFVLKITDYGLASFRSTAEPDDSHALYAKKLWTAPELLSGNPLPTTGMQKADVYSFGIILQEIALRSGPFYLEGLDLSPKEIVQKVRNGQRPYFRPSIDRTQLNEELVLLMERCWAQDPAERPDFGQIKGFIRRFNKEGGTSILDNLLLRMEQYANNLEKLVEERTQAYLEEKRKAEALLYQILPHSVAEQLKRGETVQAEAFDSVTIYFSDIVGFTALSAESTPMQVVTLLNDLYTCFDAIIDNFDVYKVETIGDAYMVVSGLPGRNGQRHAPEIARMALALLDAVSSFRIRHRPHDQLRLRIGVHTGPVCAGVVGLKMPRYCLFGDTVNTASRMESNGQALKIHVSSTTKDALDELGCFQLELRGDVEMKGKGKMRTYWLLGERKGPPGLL

Only a part is listed here, and it is no random draw. Some salts and complexes are drawn in separate pieces, as the source files them; their charges need not balance. The source made the active and inactive calls.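 Rule for the calls: active = activation at 10 µM reaching about 35% in either raw or pattern-adjusted values (limit read from the data); inactive = the rest.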

The target in the test is Atrial natriuretic peptide receptor 2 (Homo sapiens) (UniProt P20594). The test is described as follows: human GC-B receptor activators, primary screen, HEK293 GC-B cells, cGMP TR-FRET, EC30 CNP (AID 1920062). The note with it: at 10 µM, active compounds read high, 0% at EC30 CNP, 100% saturating CNP.
Regarding `Cc1nc2ccc3ccccc3c2s1.O=[N+]([O-])c1cc([N+](=O)[O-])c(O)c([N+](=O)[O-])c1`, the activation is inactive: -5.71%.

Take `O=[N+]([O-])c1cc([N+](=O)[O-])c(-c2cnn(-c3ccccc3)c2)c([N+](=O)[O-])c1`: the activation is inactive: -2.79%.

On to `CCOC(=O)C(CC)C1=NC(C)(C)Cc2ccccc21.O=[N+]([O-])c1cc([N+](=O)[O-])c(O)c([N+](=O)[O-])c1` (stereo unspecified), for which the activation was inactive: -1.76%.

Consider `O=[N+]([O-])c1cc([N+](=O)[O-])c(Nc2nnnn2CCO)c([N+](=O)[O-])c1`, for which the activation is inactive: 4.09%.

With `COc1ccc(-c2ccccn2)cc1.O=[N+]([O-])c1cc([N+](=O)[O-])c(O)c([N+](=O)[O-])c1`, the activation was inactive: 1.85%.

Consider `CCCOc1ccc(NP(C)(=O)Oc2ccc(Cl)cc2)cc1` (stereo unspecified), for which the activation was inactive: -6.25%.

As for `CP(=O)(Nc1ccc(SC(F)(F)F)cc1)Oc1ccccc1` (stereo unspecified), the activation was inactive: -2.28%.

`CN1CCCCC1COC(=O)C1(O)c2ccccc2CCc2ccccc21` (stereo unspecified): the activation is inactive: -8.71%.

Take `COc1ccccc1OP(C)(=O)Nc1c(C)cccc1C` (stereo unspecified): the activation was inactive: -3.17%.

For `O=C(O)c1cccc(Nc2c([N+](=O)[O-])cc([N+](=O)[O-])cc2[N+](=O)[O-])c1`, the activation was inactive: 5.03%.

As to `CC1=NCCc2c1[nH]c1ccccc21.O=[N+]([O-])c1cc([N+](=O)[O-])c(O)c([N+](=O)[O-])c1`, the activation was inactive: 6.97%.

For `CCOC(=O)c1ccc(NP(C)(=O)Oc2cc(C)cc(C)c2)cc1` (stereo unspecified), the activation was inactive: -7.87%.

Consider `Cc1cc(C)cc(OP(C)(=O)Nc2ccc(C)cc2C)c1` (stereo unspecified), for which the activation is inactive: -6.82%.

Take `COc1ccccc1OP(C)(=O)Nc1cccc(Br)c1` (stereo unspecified): the activation was inactive: -5.06%.

Turning to `Cc1ccc(C)c(NP(C)(=O)Oc2ccccc2)c1` (stereo unspecified), the activation was inactive: -2.8%.

Turning to `Cc1cc(C)cc(OP(C)(=O)Nc2ccccn2)c1` (stereo unspecified), the activation is inactive: 1.27%.

As to `CP(=O)(Nc1cccc(Br)c1)Oc1ccccc1` (stereo unspecified), the activation was inactive: -7.37%.

With `CP(=O)(Nc1ccccc1F)Oc1ccccc1` (stereo unspecified), the activation was inactive: -1.62%.

Take `CC(C)c1ccc(OP(C)(=O)Nc2ccc(SC(F)(F)F)cc2)cc1` (stereo unspecified): the activation is inactive: 10.3%.

With `O=[N+]([O-])c1cc([N+](=O)[O-])c(Nc2ccc(Cl)cc2)c([N+](=O)[O-])c1`, the activation is inactive: 3.55%.

As for `COc1ccc2c(c1O)-c1c(O)c(OC)cc3c1[C@H](C2)[N+](C)(C)CC3.O=[N+]([O-])c1cc([N+](=O)[O-])c([O-])c([N+](=O)[O-])c1[O-]`, the activation was inactive: 0.54%.

For `O=C(OC1CN2CCC1CC2)c1ccc([N+](=O)[O-])cc1` (stereo unspecified), the activation is inactive: -8.1%.

For `O=C(OCCN1CCN(CCOCc2ccccc2)CC1)C(O)(c1ccccc1)c1ccccc1`, the activation was inactive: 3.59%.

For `CCOC(=O)c1ccc(NP(C)(=O)Oc2ccc(F)cc2)cc1` (stereo unspecified), the activation was inactive: 3.65%.

With `COc1ccc(OP(C)(=O)Nc2ccc(SC(F)(F)F)cc2)cc1` (stereo unspecified), the activation is inactive: -0.9%.

For the compound `CCN(CC)CCCNc1ccccc1[N+](=O)[O-].O=[N+]([O-])c1cc([N+](=O)[O-])c(O)c([N+](=O)[O-])c1`, the activation is inactive: -4.02%.

Regarding `CP(=O)(Nc1ccccc1)Oc1ccc(F)cc1` (stereo unspecified), the activation was inactive: -1.48%.

Regarding `CCCCCOc1ccc(NP(C)(=O)Oc2ccc(Cl)cc2Cl)cc1` (stereo unspecified), the activation was inactive: 0.64%.

As for `O=[N+]([O-])c1cc([N+](=O)[O-])c(OC2CCCCC2O)c([N+](=O)[O-])c1` (stereo unspecified), the activation was inactive: -0.02%.

As for `Cc1c([N+](=O)[O-])cc([N+](=O)[O-])c(Br)c1[N+](=O)[O-]`, the activation is inactive: 3.54%.

For the compound `CCN(CC)CCCOC(=O)C(O)(c1ccccc1)C1CCCCC1` (stereo unspecified), the activation is inactive: -4.82%.

Turning to `CN(C)CCOC(=O)C(O)(c1ccccc1)C1CCCCC1` (stereo unspecified), the activation is inactive: -0.11%.

As for `COc1ccc(NP(C)(=O)Oc2ccccc2OC)cc1` (stereo unspecified), the activation is inactive: -0.07%.

`COc1ccc(OP(C)(=O)Nc2cccc(Br)c2)cc1` (stereo unspecified): the activation is inactive: -10.1%.

Take `Cc1c(C(c2ccc3c(c2)OCO3)c2c(C)n(C)n(-c3ccccc3)c2=O)c(=O)n(-c2ccccc2)n1C.O=[N+]([O-])c1cc([N+](=O)[O-])c(O)c([N+](=O)[O-])c1`: the activation was inactive: 0.59%.

Regarding `O=[N+]([O-])c1ccc(OP2(=O)COCCO2)cc1` (stereo unspecified), the activation is inactive: 4.65%.

On to `O=[N+]([O-])c1cc([N+](=O)[O-])c(NCC2CCS(=O)(=O)C2)c([N+](=O)[O-])c1` (stereo unspecified), for which the activation is inactive: 2.07%.

On to `Cc1cc(-c2cccc3ccccc23)c(C)cn1.O=[N+]([O-])c1cc([N+](=O)[O-])c(O)c([N+](=O)[O-])c1`, for which the activation was inactive: -3.68%.

As for `CCOP(C)(=S)SCC(=O)NC(C)(CC)C(=O)O` (stereo unspecified), the activation is inactive: 3.74%.

On to `CCOP(=O)(CC)OCC`, for which the activation is inactive: -7.87%.

`CP(=O)(Nc1ccc(SC(F)(F)F)cc1)Oc1ccc(F)cc1` (stereo unspecified): the activation was inactive: -2.74%.

`Cc1ccccc1NP(C)(=O)Nc1ccccc1C`: the activation is inactive: 0.88%.

On to `O=[N+]([O-])c1cc([N+](=O)[O-])c(C(F)(F)F)c([N+](=O)[O-])c1O`, for which the activation was inactive: -2.54%.

In the case of `CP(=O)(Nc1ccc2c(c1)OCCO2)Oc1ccccc1` (stereo unspecified), the activation was inactive: -0.33%.

In the case of `O=C(OCCCN1CCCC1)C(O)(c1ccccc1)C1CCCCC1` (stereo unspecified), the activation was inactive: -5.3%.

With `COc1ccccc1OP(C)(=O)Nc1c(C)n(C)n(-c2ccccc2)c1=O` (stereo unspecified), the activation is inactive: 1.63%.

Consider `CCc1ccc(OP(C)(=O)Nc2cccnc2)cc1` (stereo unspecified), for which the activation is inactive: -5.88%.

As to `CP(=O)(Oc1ccccc1)N1CCOC1=O` (stereo unspecified), the activation was inactive: -0.52%.

As for `COc1ccc(OP(C)(=O)Nc2ccc(Br)cc2)cc1` (stereo unspecified), the activation is inactive: -2.98%.

As for `CN(C)C(=O)c1c([N+](=O)[O-])cc([N+](=O)[O-])cc1[N+](=O)[O-]`, the activation was inactive: 1.98%.

With `COc1ccccc1OP(C)(=O)Nc1ccccc1Br` (stereo unspecified), the activation is inactive: -0.98%.

On to `CC(C)(C)c1ccc(OP(C)(=O)O)cc1`, for which the activation is inactive: -0.52%.

Turning to `CP(=O)(Nc1ccc(Cl)cc1)Oc1ccc(F)cc1` (stereo unspecified), the activation was inactive: -6.75%.

`CCOC(=O)c1ccc(NP(C)(=O)Oc2ccc(Cl)cc2)cc1` (stereo unspecified): the activation was inactive: 1.08%.

As for `CP(=O)(OC12CC3CC(CC(C3)C1)C2)OC12CC3CC(CC(C3)C1)C2`, the activation was inactive: 1.96%.

As for `Nc1ccc2c(ccc3cccnc32)n1.O=[N+]([O-])c1cc([N+](=O)[O-])c(O)c([N+](=O)[O-])c1`, the activation is inactive: 0.92%.

On to `COc1ccccc1OP(C)(=O)Nc1ccc(C)c(C)c1` (stereo unspecified), for which the activation is inactive: -10.1%.

For `COc1ccc(OP(C)(=O)Nc2ccccc2Br)cc1` (stereo unspecified), the activation is inactive: -5.51%.

Turning to `Cc1cc(C)cc(OP(C)(=O)Nc2cccc(C(F)(F)F)c2)c1` (stereo unspecified), the activation was inactive: -4.29%.

Turning to `O=C1C(O)=C([N+](=O)[O-])C(=O)C(O)=C1[N+](=O)[O-]`, the activation is inactive: -2.02%.

Consider `CCCCCCCCCCCCCCCC1C[N+](C)(C)CCOP(C)(=O)O1` (stereo unspecified), for which the activation is inactive: 9.11%.

Take `CP(=O)(Nc1ccc(Cl)cc1Cl)Oc1ccccc1` (stereo unspecified): the activation is inactive: -9%.

As to `CP(=O)(OCCOc1ccccc1)OCCOc1ccccc1`, the activation was inactive: -1.94%.

Consider `COc1ccc(OP(C)(=O)Nc2ccccn2)cc1` (stereo unspecified), for which the activation was inactive: -0.23%.

For `CN(C)CCOC(=O)C(O)(c1ccccc1)C1CCCC1` (stereo unspecified), the activation was inactive: 3.19%.

`COc1ccccc1OP(C)(=O)Nc1ccc(Br)cc1` (stereo unspecified): the activation was inactive: -5.58%.

With `COc1ccccc1OP(C)(=O)Nc1ccc(C)cc1C` (stereo unspecified), the activation was inactive: -4.95%.

Consider `CP(=O)(Nc1ccccn1)Oc1ccccc1` (stereo unspecified), for which the activation was inactive: -1.27%.

For `CCc1ccc(OP(C)(=O)O)cc1`, the activation is inactive: 10.5%.

As to `Cc1c(NP(C)(=O)Oc2ccc(C(C)C)cc2)c(=O)n(-c2ccccc2)n1C` (stereo unspecified), the activation is inactive: -2.65%.

For `O=[N+]([O-])c1cc([N+](=O)[O-])c(Nc2ccccn2)c([N+](=O)[O-])c1`, the activation was inactive: 1.4%.
